From ChEMBL document CHEMBL4390672, “Development of Covalent Ligands for G Protein-Coupled Receptors: A Case for the Human Adenosine A3 Receptor” (J Med Chem, 2019)

Protein sequences, listed by entry. Tags and fused reporters are not part of them.
UniProt P0DMS8, whole entry Y265F: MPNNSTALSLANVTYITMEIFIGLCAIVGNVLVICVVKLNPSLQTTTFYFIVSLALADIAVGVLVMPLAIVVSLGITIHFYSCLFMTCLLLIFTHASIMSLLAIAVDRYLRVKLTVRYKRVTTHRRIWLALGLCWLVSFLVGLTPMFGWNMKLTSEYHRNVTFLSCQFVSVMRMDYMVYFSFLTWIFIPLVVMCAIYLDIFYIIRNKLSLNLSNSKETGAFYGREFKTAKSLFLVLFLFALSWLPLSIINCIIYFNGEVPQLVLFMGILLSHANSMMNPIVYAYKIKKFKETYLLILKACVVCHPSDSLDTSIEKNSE
UniProt P0DMS8, whole entry: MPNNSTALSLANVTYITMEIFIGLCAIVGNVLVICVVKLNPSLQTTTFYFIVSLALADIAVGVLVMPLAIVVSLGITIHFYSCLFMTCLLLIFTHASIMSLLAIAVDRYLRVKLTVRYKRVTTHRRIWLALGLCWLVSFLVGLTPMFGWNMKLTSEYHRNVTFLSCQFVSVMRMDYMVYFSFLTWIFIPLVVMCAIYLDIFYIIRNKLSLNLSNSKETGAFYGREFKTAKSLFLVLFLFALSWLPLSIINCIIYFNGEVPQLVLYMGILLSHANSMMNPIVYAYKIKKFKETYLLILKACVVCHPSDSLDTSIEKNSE

Legend:
[1] = target: Adenosine receptor A3 (Homo sapiens, UniProt P0DMS8, Y265F); assay: (§1) Displacement of [3H]PSB11 from human A3 adenosine receptor Y265F (7.36) mutant transiently expressed in CHOK1 cell membranes measured after 2 hrs by scintillation spectrometric method
Outline: (§2)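 CHO-K1 cells transfected by PEI (3:1, 20 µg DNA/dish) with WT or Y265F7.36 hA3AR, then given 5 mM sodium butyrate for 24 h before membrane preparation. Membranes incubated with ~10 nM [3H]PSB-11 and competitor for 2 h at 25 °C; filtration and counting; pIC50; three experiments in duplicate.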

[2] = system: Adenosine receptor A3 (Homo sapiens), P0DMS8 [Y265F]; assay: as §1; outline: as §2
[3] = target: T1, Adenosine receptor A3 (Homo sapiens, UniProt P0DMS8); assay: Competitive insurmountable antagonist activity at human A3 adenosine receptor expressed in CHO cell membranes assessed as inhibition of 2-Cl-IB-MECA-induced [35S]-GTPgammaS binding measured after 30 mins; format: functional, cell-based; details: read-out: pA2 (converted)
[4] = target: T1, Adenosine receptor A3; assay: Displacement of [3H]PSB11 from human A3 adenosine receptor transiently expressed in CHOK1 cell membranes measured after 2 hrs by scintillation spectrometric method; outline: as §2
[5] = target: T2, Adenosine receptor A2b (Homo sapiens) (UniProt P29275); assay: Displacement of [3H]PSB-603 from human A2B adenosine receptor expressed in CHO cell membranes at 1 uM measured after 2 hrs by scintillation spectrometric method relative to control
T2 sequence (whole entry): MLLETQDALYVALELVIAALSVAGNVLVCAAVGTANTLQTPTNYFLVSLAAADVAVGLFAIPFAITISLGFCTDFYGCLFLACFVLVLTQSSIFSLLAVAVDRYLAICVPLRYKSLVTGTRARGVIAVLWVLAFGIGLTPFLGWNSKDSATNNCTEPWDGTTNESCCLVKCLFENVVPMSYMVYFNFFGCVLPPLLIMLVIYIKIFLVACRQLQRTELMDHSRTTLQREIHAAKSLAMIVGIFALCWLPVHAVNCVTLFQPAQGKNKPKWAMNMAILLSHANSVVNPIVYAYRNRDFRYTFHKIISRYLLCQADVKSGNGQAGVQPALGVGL
Outline: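 Single-point screen at 1 µM test compound against specific [3H]PSB-603 binding to membranes of CHO cells stably expressing hA2BAR, 2 h incubation at 25 °C. Reported as percent displacement from two experiments run in duplicate.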

CCCn1c(=O)c2c(nc3cc(OC)ccn32)n(CCCNC(=O)c2ccc(S(=O)(=O)F)cc2)c1=O
IC50 [1]: 1070 nM | pIC50(app) [2]: 6 | Kb [3]: 39.8 nM | IC50 [4]: 27 nM | pIC50(app) [4]: 7.8 | inhibition [5]: 0%
